The source of these data is PubChem BioAssay AID602252 (Broad Institute, 2012).

Only a part is listed here, and it is no random draw. The source made the active and inactive calls.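 How the source made its calls: active means mean inhibition of at least 30% with at least half of replicates also reaching 30%; inconclusive means no clear call, values can overlap the other calls; inactive means the rest.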

Broadly, the inhibition is how much of the control response was suppressed.

The target in the experiment is Golgi-associated PDZ and coiled-coil motif-containing protein (Homo sapiens) (UniProt Q9HD26). Description: untagged CAL PDZ binding inhibitors, primary screen, biochemical, fluorescence polarization, HTS (AID 602252).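 Further: 0% = DMSO neutral control and 100% = excess unlabeled competitor peptide PRC23.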 The following applies: purified CAL PDZ, TMR-peptide fluorescence polarization, 1 h; at 24.9 µM; stronger effect = higher value. For orientation: Fluorescence polarisation rises when a labelled molecule tumbles more slowly, as on binding a larger partner.
Regarding `CCC(=O)N(c1ccccc1)C1(COC)CCN(CCn2nnn(CC)c2=O)CC1`, the inhibition was inactive: 2.29%.
Under `CCC(=O)N(c1ccccc1)C1(COC)CCN(CCc2cccs2)CC1` stands inactive: 0.136%.
